We go through 1 compound from ChEMBL document CHEMBL3286257, “Development of second generation EP2 antagonists with high selectivity” (Eur J Med Chem, 2014).

The chains behind the UniProt entries cited, without tags or fusion partners.
UniProt P28223, whole entry: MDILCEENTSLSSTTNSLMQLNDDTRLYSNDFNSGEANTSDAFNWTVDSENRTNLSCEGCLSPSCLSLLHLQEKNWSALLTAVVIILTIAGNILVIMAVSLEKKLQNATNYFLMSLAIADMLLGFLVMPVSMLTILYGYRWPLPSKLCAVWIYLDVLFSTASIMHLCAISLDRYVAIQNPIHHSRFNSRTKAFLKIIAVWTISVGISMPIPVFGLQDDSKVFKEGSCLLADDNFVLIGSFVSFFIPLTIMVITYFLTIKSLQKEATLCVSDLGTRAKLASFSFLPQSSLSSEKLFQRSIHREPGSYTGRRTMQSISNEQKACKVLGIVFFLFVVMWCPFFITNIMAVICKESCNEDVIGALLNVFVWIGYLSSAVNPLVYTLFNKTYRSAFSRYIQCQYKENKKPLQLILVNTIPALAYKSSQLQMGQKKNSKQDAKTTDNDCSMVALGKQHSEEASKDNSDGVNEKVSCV

The target of the test is 5-hydroxytryptamine receptor 2A (Homo sapiens, UniProt P28223).

In turn, `COc1cc(/C=C/C(=O)NCCn2c(C(F)(F)F)cc3ccccc32)cc(OC)c1OC` returned a half-inhibitory concentration (IC50) of 75 µM.
